Experimental data: PubChem BioAssay AID602429 (Sanford-Burnham Center for Chemical Genomics, 2012)
This is a selection; strong and weak results do not stand in their true shares. Calls of active or inactive are those of the source. Cut-off read from the data, not from the text of the source: active = inhibition above about 37%; inactive = the rest.

Protein sequences, listed by entry. Tags and fused reporters are not part of them.
UniProt P63165, whole entry, looked up: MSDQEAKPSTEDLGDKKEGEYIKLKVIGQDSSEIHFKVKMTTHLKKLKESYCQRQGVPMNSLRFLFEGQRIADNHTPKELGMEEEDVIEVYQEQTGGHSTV

target: Small ubiquitin-related modifier 1 (Homo sapiens) (UniProt P63165); test: modulators of SUMO1 protein-protein interactions, primary screen, biochemical, uHTS (AID 602429); conditions: SUMO1 binding to a labelled peptide, TR-FRET, 1 h; at 20 µM; stronger effect = higher value

Row | SMILES | inhibition
1 | Cc1ccc(NCCc2c([N+](=O)[O-])cc([N+](=O)[O-])cc2[N+](=O)[O-])cc1 | inactive: -29.2%
2 | Nc1cccc2c([As](=O)(O)O)cccc12 | inactive: 2.4%
3 | CCCOP(=S)(Nc1nc(N)cc(=O)[nH]1)OCCC | inactive: -4.9%
4 | CCOP(=O)(Nc1cccc2ccccc12)OCC | inactive: -2.05%
5 | COc1cc(C2NCCC3(OCCO3)C2(C)C)cc(OC)c1OC (stereo not drawn) | inactive: -3.8%
6 | O=C(OC1CN2CCC1CC2)c1ccc(Cl)cc1 (stereo not drawn) | inactive: 2.82%
7 | CS(=O)(=O)c1ccc(Cl)c(NC(=O)COC(=O)C(O)(c2ccccc2)c2ccccc2)c1 | inactive: -3.03%
8 | COc1cc(C(=O)NCC2(N3CCOCC3)CCCCC2)cc(Cl)c1OC(C)C | inactive: 0.816%
9 | O=[As](O)(O)c1cccnc1 | inactive: 5.73%
10 | O=[As](O)(c1cccc(O)c1)c1cccc(O)c1 | inactive: -0.956%
11 | Cc1cccc(OCC(=O)OC2CN3CCC2CC3)c1 (stereo not drawn) | inactive: -3.41%
12 | NC(=O)Nc1ccc([As](=O)(O)O)cc1 | inactive: 8.2%
13 | CCOP1(=S)c2c(C)nn(CCC#N)c2N=C(c2ccc(F)cc2)N1C (stereo not drawn) | inactive: 1.19%
14 | CN(C(=O)Cc1ccccc1)[C@@H]1CC[C@]2(CCCO2)C[C@H]1N1CCCC1 | inactive: -2.6%
15 | N#CCCN(C(=O)COC(=O)C(O)(c1ccccc1)c1ccccc1)c1ccc(F)cc1 | inactive: 1.51%
16 | CN(C(=O)Cc1ccc(Cl)c(Cl)c1)[C@H]1CC[C@@]2(CCCO2)C[C@@H]1N1CCCC1 | inactive: 0.394%
17 | CN(C)C(=O)c1cc([N+](=O)[O-])cc2c1-c1c(cc([N+](=O)[O-])cc1[N+](=O)[O-])C2=O | inactive: -34.6%
18 | O=[N+]([O-])c1ccc2c(c1)nnn2O | inactive: -17.8%
19 | O=P(Nc1nccs1)(c1ccccc1)c1nc2ccccc2s1 (stereo not drawn) | inactive: 5.61%
20 | O=P(Nc1nccs1)(Oc1ccccc1)Oc1ccccc1 | inactive: 1.67%
21 | CCOP1(=S)c2c(C)nn(CCC#N)c2N=C(c2ccccc2F)N1C (stereo not drawn) | inactive: 1.52%

Row | SMILES | inhibition
22 | CS(=O)(=O)c1cc([N+](=O)[O-])c2no[n+]([O-])c2c1 | inactive: -28.2%
23 | O=C(O)COc1ccc([As](=O)(O)O)cc1[N+](=O)[O-] | inactive: -5.7%
24 | Nc1ccccc1[As](=O)(O)c1ccccc1 | inactive: -6.96%
25 | Cc1ccc(S(=O)(=O)N(CCCN)CCCc2c(C)nc(N)[nH]c2=O)cc1 | inactive: -14.9%
26 | O=P1(Nc2ncccn2)COc2ccccc2OC1 | inactive: 1.6%
27 | Nc1cccc([As](=O)(O)c2ccccc2)c1 | inactive: 2.22%
28 | NS(=O)(=O)c1cccc(NC(=O)COC(=O)C(O)(c2ccccc2)c2ccccc2)c1 | inactive: 9.82%
29 | O=P1(Nc2ccc(Br)cn2)COc2ccccc2OC1 | inactive: 2.59%
30 | Cc1ccc(OCC(=O)OC2CN3CCC2CC3)cc1 (stereo not drawn) | inactive: 0.0993%
31 | O=[As](O)(c1cccs1)c1cccs1 | inactive: 0.419%
32 | Cc1ccc(C(=O)OC2CN3CCC2CC3)cc1 (stereo not drawn) | inactive: -0.195%
33 | CC1CCC(C(C)C)C(OP(=O)(Nc2ccccn2)c2ccccc2)C1 (stereo not drawn) | inactive: 13.5%
34 | Cc1nn(-c2ccccc2)c2c1P(=O)(N1CCOCC1)N(C)C(c1ccccc1)=N2 (stereo not drawn) | inactive: -4.78%
35 | CN(C)C1(CNC(=O)c2ccc(S(C)(=O)=O)cc2)CCCCC1 | inactive: -0.451%
36 | CCCC1OP(=O)(Nc2ccccc2)OCC1CC (stereo not drawn) | inactive: -1.1%
37 | O=C(/C=C/c1ccccc1)OC1CN2CCC1CC2 (stereo not drawn) | inactive: -6.95%
38 | COc1ccccc1CNC(=O)COC(=O)C(O)(c1ccccc1)c1ccccc1 | inactive: 2.66%
39 | CN(C(=O)Cc1ccc(Cl)c(Cl)c1)[C@@H]1CCCC[C@H]1N1CCCC1 | inactive: 3.16%
40 | CC(C)/C=N\N=C(\N)N[N+](=O)[O-] | inactive: -1.5%
41 | CC1(CBr)Cn2c(nc3ccccc3c2=O)S1 (stereo not drawn) | inactive: -0.756%
42 | CCOP(=O)(NC(=NC(C)c1ccccc1)NC(C)c1ccccc1)OCC (stereo not drawn) | inactive: -0.251%

Row | SMILES | inhibition
43 | CCC1=CC2Cc3nc4ccc(Cl)cc4c(N)c3C(C1)C2 (stereo not drawn) | inactive: 0.0721%
44 | O=P1(Nc2ccccn2)COc2ccccc2OC1 | inactive: -0.255%
45 | CN(CCCl)Cc1cc(Cl)c(NC2=NCCN2)c(Cl)c1 | inactive: -23.3%
46 | CCOP(=O)(Nc1ccc(C)cn1)OCC | inactive: 2.95%
47 | CC(C)(C)C(=O)NC(Sc1ncccn1)C(Cl)(Cl)Cl (stereo not drawn) | inactive: 5.63%
48 | Clc1n[nH]nc1-c1nn[nH][15n]1 | inactive: 0.592%
49 | O=P1(N(CCCl)CCCl)NCCC(C(F)(F)F)O1 (stereo not drawn) | inactive: 0.239%
50 | CSc1ccc(Nc2c([N+](=O)[O-])cc([N+](=O)[O-])cc2[N+](=O)[O-])cc1 | inactive: -49%
51 | O=C(OC1CN2CCC1CC2)c1cccc([N+](=O)[O-])c1 (stereo not drawn) | inactive: -28.8%
52 | CCOC(=O)c1ccc(NC(=O)C(C)(CCl)SC)cc1 (stereo not drawn) | inactive: 6.33%
53 | CCC(C)N(CC(C)C)C(=S)SC(NC(C)=O)C(Cl)(Cl)Cl (stereo not drawn) | inactive: -0.718%
54 | COC(=O)C1(C)COP(=O)(N2CCCC2)OC1 (stereo not drawn) | inactive: 3.09%
55 | COP1(=S)c2c(C)nn(CCC#N)c2N=C(c2ccc(F)cc2)N1C (stereo not drawn) | inactive: -1.33%
56 | O=C(O)C(=O)c1ccc(N(CCCl)CCCl)cc1 | inactive: 0.992%
57 | O=C(Nc1ccncc1[N+](=O)[O-])c1ccc([N+](=O)[O-])cc1[N+](=O)[O-] | inactive: -39%
58 | O=C(COc1ccccc1)OC1CN2CCC1CC2 (stereo not drawn) | inactive: 0.93%
59 | CCOC(=O)Nc1cccc([As](=O)(O)O)c1 | inactive: -0.183%
60 | Cc1cc(SC(NC=O)C(Cl)(Cl)Cl)ncn1 (stereo not drawn) | inactive: 0.78%
61 | O=P(Nc1ccccn1)(c1cccc2ccccc12)c1cccc2ccccc12 | inactive: -6.98%
62 | O=[N+]([O-])c1ccc(Nc2ccc(Oc3ccc([N+](=O)[O-])cc3[N+](=O)[O-])cc2)c([N+](=O)[O-])c1 | inactive: -4.36%
63 | O=C(O)C(O)c1ccc(N(CCCl)CCCl)cc1 (stereo not drawn) | inactive: 4.44%
